# The list is not random: actives were taken first. Their share in the collection is about 3.7%.
# Nrf2 inh = blocks Nrf2 signaling | actives 2.1% (n = 360,000) | Potency, µM (series often up to 46 µM), without a hit: top-dose activity change, negative = inhibition, usual class: inhibitors | AID 504444 | A549 ARE-Fluc reporter, luciferase luminescence, 18-24 h; further: potency means the concentration at half of the fitted maximal effect; on the % scale 0 is the no-effect control and ±100 the full control effect; nearly all actives have a fitted effect of over 60% in size
#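 Reporter: ARE-Fluc in A549. Exposure: 18-24 h, 37 °C, 5% CO2, 5% FBS OPTI-MEM. Readouts: fluorescent cytotoxicity (CellTiter-Fluor), then luminescent Nrf2 signal after BugLite.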
# A549 tox-1 = A549 cytotoxicity, counter-screen for Nrf2 inhibitors. A549 ARE-Fluc cells, CellTiter-Fluor viability, 18-24 h. Potency, µM (doses to about 46 µM), for inactives: at the highest dose activity change, negative = cytotoxicity, most hits filed as inhibitors. actives 0.16% (n = 390,000); further: potency means the concentration at half of the fitted maximal effect; on the % scale 0 is the no-effect control and ±100 the full control effect
#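 A549 ARE_Fluc cells in 5% FBS OPTI-MEM were exposed to compounds in concentration-response for 18-24 h at 37 deg C. Viability was read by CellTiter-Fluor fluorescence (Ex 405/Em 525) after 30 min, before the luciferase read.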
# Nrf2 activator = Nrf2 pathway activation; AREc32 ARE-luciferase reporter (MCF7-derived line), luminescence, 24 h; Potency, µM (highest dose often 46.1 µM), for inactives: at the highest dose activation, usual class: activators; actives 0.31% (n = 410,000); further: potency means the concentration at half of the fitted maximal effect; % of control where 0% means no effect; nearly all actives have a fitted effect of over 65% in size
#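 Cells of the AREc32 ARE-luciferase line are plated in OPTI-MEM containing 5% FBS and left overnight at 37 deg C. Compounds are pinned in, incubation continues 24 hr, and firefly luciferase signal is then measured.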
# ClpP mod = qHTS Assay for Activators of ClpP; Potency, µM (titrated, usually from 57.5 µM), inactives show at the top dose activity change, negative = active; purified B. subtilis ClpP, FRET peptide cleavage, 20 min; ATP-dependent Clp protease proteolytic subunit (Bacillus subtilis (strain 168)), P80244; actives 1.9% (n = 340,000); active means well fitted falling curve with a large enough effect; inconclusive means small, poorly fitted or top-dose-only effect; inactive means no such curve, though single readings can be large or run the other way; further: potency means the concentration at half of the fitted maximal effect; the source files actives as falling curves though it sought activators and does not explain the sign; nearly all actives have a fitted effect of over 65% in size
#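 Buffer: 100 mM Tris/HCl pH8, 100 mM KCl, 0.05% low protease BSA, 2.5% glycerol, 0.01% Tween-20. ClpP 10 microg/mL final; 20 min RT; delta FRET normalized to ADEP and DMSO controls.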
# miR-21 reporter = raises the signal of a miR-21 reporter | HeLa miR-21 FLuc reporter, luciferase, 48 h | Potency, µM (highest dose often 38.3 µM), inactives show at the highest dose reporter change, positive = more light | 340,000 tested, under 10 active | AID 2288; active = well fitted rising curve with a large enough effect; inconclusive = small, poorly fitted or top-dose-only effect; inactive = no such curve, though single readings can be large or run the other way;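 note: % of control where 0% means no effect; miR-21 action dims this reporter so a rising signal means less miR-21 action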
#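 HeLa cells endogenously expressing miR-21, stably carrying CMV-driven firefly luciferase with a downstream miR-21 binding site, 2000 cells/well. Titrations up to approximately 40 uM, 48 hours; luciferase luminescence read.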
# p53 reactivator = restores transcriptional activity of mutant p53; H1299 p53-A138V BP100-luciferase reporter, luminescence, 24 h; actives 0.063% (n = 320,000); Potency, µM (highest dose often 92.2 µM), for inactives: at the top dose activity change, positive = activation, usual class: activators; further: potency means the concentration at half of the fitted maximal effect; % of control where 0% means no effect; nearly all actives have a fitted effect of over 45% in size
#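 H1299 (p53-null), stable ts p53-A138V + BP100-Luc; 1000 cells/well, Opti-MEM/10% FBS; cpd 4 pt, 1:5; 24 h, 37 deg C, 5% CO2; detection reagent 10 min RT; luminescence.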
# FLuc enzyme inh = firefly luciferase inhibition, Nrf2 hit validation; shares compounds with Nrf2 inh; purified firefly luciferase, luminescence inhibition; Potency, µM (doses to about 57.5 µM), inactives show top-dose activity change, negative = inhibition, most hits filed as inhibitors; actives 4% (n = 1,400); further: potency means the concentration at half of the fitted maximal effect; on the % scale 0 is the no-effect control and ±100 the full control effect; nearly all actives have a fitted effect of over 65% in size
# A549 tox-2 = A549 cytotoxicity, Nrf2 inhibitor counterscreen. shares compounds with Nrf2 inh. A549 ARE-Fluc cells, cytotoxicity counterscreen. Potency, µM (top dose mostly 46.1 µM), for the others: at the highest dose activity change, negative = cytotoxicity, hits mostly inhibitors. actives 2% (n = 1,400);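 further: potency means the concentration at half of the fitted maximal effect; cells exposed to compounds for 18 to 24 hours; on the % scale 0 is the no-effect control and ±100 the full control effect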
# ARE-Fluc inh = Nrf2 inhibition confirmed, A549 ARE-luciferase; Potency, µM (top dose mostly 46.1 µM), for inactives: at the top dose activity change, negative = inhibition, most hits filed as inhibitors; actives 74% (n = 1,400); A549 ARE-firefly luciferase reporter, luminescence; shares compounds with Nrf2 inh; further: potency means the concentration at half of the fitted maximal effect; on the % scale 0 is the no-effect control and ±100 the full control effect; nearly all actives have a fitted effect of over 65% in size
# * = called active by the depositor; ? = inconclusive; nt = not tested or not shown. Unless noted, the call rests on the fitted dose curve; in most records, active means well fitted curve in the direction sought with a large enough effect; inconclusive means small, poorly fitted or top-dose-only effect, or another doubt; inactive means no such curve, though single readings can be large; an effect the other way counts as inactive or inconclusive.
# Short forms – A = Nrf2 inh; B = A549 tox-1; C = Nrf2 activator; D = ClpP mod; E = miR-21 reporter; F = p53 reactivator; G = FLuc enzyme inh; H = A549 tox-2; I = ARE-Fluc inh
O=C(CSc1nc2c([nH]c3ccccc32)c(=O)n1-c1cccc(C(F)(F)F)c1)N1CCc2ccccc21
  A = nt	B = 6%	C = -1%	D = 4%	E = -1%	F = nt	G = nt	H = nt	I = nt
Cc1ccc(CNC(=O)c2ccc3c(O)c(S(=O)(=O)c4ccccc4)c(=O)[nH]c3c2)cc1
  A = 4%	B = 2%	C = 0%	D = -17%	E = -1%	F = nt	G = nt	H = nt	I = nt
O=[N+]([O-])c1ccc(S(=O)(=O)CC2CSc3nc4ccccc4n32)cc1 (stereo not given)
  A = 5.2µM*	B = -17%	C = 1%	D = -7%	E = -2%	F = 5%	G = -2%	H = ?	I = 2.1µM*
Cc1nnc2n(c1=O)C(CS(=O)(=O)c1ccccc1)CS2 (stereo not given)
  A = -3%	B = -1%	C = 0%	D = 0%	E = -1%	F = 2%	G = nt	H = nt	I = nt
CC[n+]1ccc(/C=C/c2c[nH]c3ccccc23)cc1
  A = 1.3µM*	B = ?	C = 5%	D = -1%	E = 27%	F = -2%	G = -1%	H = ?	I = 4.6µM*
COc1ccc2c(/C=C/c3cc[n+](C)cc3)c[nH]c2c1
  A = 1.3µM*	B = ?	C = 1%	D = 0%	E = ?	F = 1%	G = 4%	H = ?	I = 1.6µM*
COc1ccc2c(C=O)c[nH]c2c1
  A = 6%	B = 8%	C = 4%	D = -1%	E = 0%	F = -6%	G = nt	H = nt	I = nt
CCCCCCC[n+]1ccc(/C=C/c2c[nH]c3ccccc23)cc1
  A = nt	B = nt	C = nt	D = -1%	E = nt	F = nt	G = nt	H = nt	I = nt
Cc1ccc2[nH]cc(/C=C/c3cc[n+](C)cc3)c2c1
  A = 1.8µM*	B = -42%	C = 11%	D = nt	E = ?	F = 1%	G = 0%	H = -30%	I = 1.3µM*
O=C(OCC#CCSc1nnc(-c2cccc3ccccc23)o1)c1ccc(Cl)c(C(F)(F)F)c1
  A = 2%	B = 2%	C = nt	D = nt	E = nt	F = nt	G = nt	H = nt	I = nt
COc1ccccc1NC(=O)C1CCCN(c2nnc(C)c3c(C)n(-c4ccccc4)nc23)C1 (stereo not given)
  A = -20%	B = -4%	C = 0%	D = ?	E = 4%	F = nt	G = nt	H = nt	I = nt
CC(=O)OCC(=O)[C@@]1(O)CC[C@H]2[C@@H]3C[C@H](C)C4=CC(=O)C=C[C@]4(C)[C@H]3[C@@H](O)C[C@@]21C
  A = 0.052µM*	B = 1%	C = 1%	D = -2%	E = -34%	F = 9%	G = 4%	H = -7%	I = 0.052µM*
CC1CC2C(C(O)CC3(C)C2CCC3(O)C(=O)CO)C2(C)C=CC(=O)C=C12 (stereo not given)
  A = 0.046µM*	B = -5%	C = 0%	D = nt	E = nt	F = nt	G = -1%	H = -14%	I = 0.041µM*
COc1ccc(NC(=O)COC(=O)c2cc(OC)c(OC)cc2NC(=O)c2ccco2)cc1OC
  A = 5.8µM*	B = nt	C = -1%	D = -20%	E = -1%	F = 2%	G = -26%	H = -15%	I = -23%
N=c1ccn(Cc2ccccc2Cl)cc1
  A = nt	B = ?	C = 0%	D = 1%	E = 28%	F = -3%	G = nt	H = nt	I = nt
N=c1ccn(Cc2c(Cl)cccc2Cl)cc1
  A = 5.2µM*	B = -5%	C = -1%	D = nt	E = ?	F = 2%	G = 2%	H = -3%	I = 4.1µM*
CC(=O)N1c2ccc(C)cc2Sc2c1ccc1ccccc21
  A = -4%	B = 4%	C = 7%	D = nt	E = nt	F = nt	G = nt	H = nt	I = nt
Cc1ccc2c(c1)S/C(=C/c1ccc[n+](CCO)c1)N2C
  A = 1.2µM*	B = -17%	C = 5%	D = nt	E = ?	F = 2%	G = 2%	H = -21%	I = 5.8µM*
Cc1cc(C(=O)COc2cccnc2[N+](=O)[O-])c(C)n1Cc1cccs1
  A = ?	B = -3%	C = 0%	D = -1%	E = -16%	F = -11%	G = nt	H = nt	I = nt
CC(=O)Nc1ccccc1OCC(=O)c1cc(C)n(Cc2cccs2)c1C
  A = 0.41µM*	B = ?	C = 3%	D = 1%	E = -15%	F = ?	G = 15µM*	H = -4%	I = -24%
O=C(Nc1cccc(C(=O)OCc2cc(=O)n3c4c(sc3n2)CCCC4)c1)c1ccc(Cl)cc1
  A = nt	B = -2%	C = 11%	D = ?	E = -32%	F = nt	G = nt	H = nt	I = nt
CC(=O)N1c2ccc(S(=O)(=O)N3CCN(c4cccc(Cl)c4)CC3)cc2CC1C (stereo not given)
  A = ?	B = 21%	C = -1%	D = -3%	E = 2%	F = nt	G = nt	H = nt	I = nt
CC1Cc2cc(S(=O)(=O)NCc3ccccc3)ccc2N1C(=O)C1CC1 (stereo not given)
  A = ?	B = 2%	C = 0%	D = 2%	E = -7%	F = 7%	G = nt	H = nt	I = nt
COc1ccc(NS(=O)(=O)c2ccc3c(c2)CC(C)N3C(=O)C2CCC2)cc1OC (stereo not given)
  A = nt	B = ?	C = -1%	D = 2%	E = 21%	F = nt	G = nt	H = nt	I = nt
CC1Cc2cc(S(=O)(=O)NCc3ccccc3)ccc2N1C(=O)C1CCC1 (stereo not given)
  A = 1.6µM*	B = -3%	C = 0%	D = -2%	E = 0%	F = -1%	G = 2%	H = 0%	I = ?

# Profiles, looked up by structure. Screens in order: Nrf2 inh | A549 tox-1 | Nrf2 activator | ClpP mod | miR-21 reporter | p53 reactivator | FLuc enzyme inh | A549 tox-2 | ARE-Fluc inh
# Record of CC(=O)Nc1ccccc1OCC(=O)c1cc(C)n(Cc2cccs2)c1C → 0.41µM* | ? | 3% | 1% | -15% | ? | 15µM* | -4% | -24%
# Record of COc1ccc2c(C=O)c[nH]c2c1 → 6% | 8% | 4% | -1% | 0% | -6% | nt | nt | nt
# Record of CC1Cc2cc(S(=O)(=O)NCc3ccccc3)ccc2N1C(=O)C1CCC1 (stereo not given) → 1.6µM* | -3% | 0% | -2% | 0% | -1% | 2% | 0% | ?

# The list goes on.
structure | Nrf2 inh | A549 tox-1 | Nrf2 activator | ClpP mod | miR-21 reporter | p53 reactivator | FLuc enzyme inh | A549 tox-2 | ARE-Fluc inh
COc1ccc(N2CCN(S(=O)(=O)c3ccc4c(c3)CC(C)N4C(C)=O)CC2)cc1 (stereo not given) | 9.2µM* | -9% | -1% | 0% | 15% | nt | 4% | -4% | 5.8µM*
COc1cc(Cl)c(NS(=O)(=O)c2ccc3c(c2)CC(C)N3C(=O)C2CCC2)c(OC)c1 (stereo not given) | 9.2µM* | -22% | -1% | 1% | ? | nt | 0% | -11% | 8.2µM*
COc1cc(NS(=O)(=O)c2ccc3c(c2)CC(C)N3C(=O)C2CCC2)cc(OC)c1OC (stereo not given) | 6.5µM* | -26% | nt | nt | 18% | nt | -2% | -16% | 2.6µM*
CC(C)(C)OC(=O)N1CCC(c2c(C(=O)NCc3ccc4c(c3)OCO4)cnn2-c2ccccc2Cl)CC1 | ? | 0% | 1% | 1% | 13% | nt | nt | nt | nt
CCc1ccccc1OCC(=O)Nc1nc(-c2cccnc2)cs1 | 7.3µM* | ? | 5% | nt | 18% | 8% | -19% | ? | ?
CCc1nnc(NC(=O)Cc2ccc(OC)c(OC)c2)s1 | -2% | 0% | 0% | -1% | -1% | 3% | nt | nt | nt
COc1ccc(CC(=O)Nc2nnc(C(C)(C)C)s2)cc1OC | 9.2µM* | -24% | 6% | nt | 3% | 4% | -1% | -3% | 3%
O=C(Cc1ccccc1)Nc1nc(-c2ccc(F)c(F)c2)cs1 | -6% | -1% | 0% | nt | -7% | 0% | nt | nt | nt
